For two compounds, IC50 results are on record in ChEMBL document CHEMBL1122788, “Quantitative relationships between alpha-adrenergic activity and binding affinity of alpha-adrenoceptor agonists and antagonists” (J Med Chem, 1984).

By UniProt entry, the sequences of proteins in these tests, tags left out. Where a name states a change or a piece, a line headed by the entry shows the natural chain unless it says otherwise.
UniProt P15823: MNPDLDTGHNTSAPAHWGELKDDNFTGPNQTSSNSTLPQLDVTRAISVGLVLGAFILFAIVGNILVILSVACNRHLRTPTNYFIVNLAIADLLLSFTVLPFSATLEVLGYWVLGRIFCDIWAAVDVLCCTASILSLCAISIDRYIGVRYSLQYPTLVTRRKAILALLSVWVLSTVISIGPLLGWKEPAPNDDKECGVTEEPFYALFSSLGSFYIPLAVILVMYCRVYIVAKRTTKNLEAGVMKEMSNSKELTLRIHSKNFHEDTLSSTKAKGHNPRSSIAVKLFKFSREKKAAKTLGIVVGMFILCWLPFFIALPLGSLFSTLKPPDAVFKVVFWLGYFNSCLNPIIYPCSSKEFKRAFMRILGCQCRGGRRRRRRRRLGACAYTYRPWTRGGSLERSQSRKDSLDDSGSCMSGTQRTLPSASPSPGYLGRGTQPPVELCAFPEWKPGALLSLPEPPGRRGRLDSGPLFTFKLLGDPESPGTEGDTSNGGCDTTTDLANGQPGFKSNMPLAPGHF
UniProt P23944: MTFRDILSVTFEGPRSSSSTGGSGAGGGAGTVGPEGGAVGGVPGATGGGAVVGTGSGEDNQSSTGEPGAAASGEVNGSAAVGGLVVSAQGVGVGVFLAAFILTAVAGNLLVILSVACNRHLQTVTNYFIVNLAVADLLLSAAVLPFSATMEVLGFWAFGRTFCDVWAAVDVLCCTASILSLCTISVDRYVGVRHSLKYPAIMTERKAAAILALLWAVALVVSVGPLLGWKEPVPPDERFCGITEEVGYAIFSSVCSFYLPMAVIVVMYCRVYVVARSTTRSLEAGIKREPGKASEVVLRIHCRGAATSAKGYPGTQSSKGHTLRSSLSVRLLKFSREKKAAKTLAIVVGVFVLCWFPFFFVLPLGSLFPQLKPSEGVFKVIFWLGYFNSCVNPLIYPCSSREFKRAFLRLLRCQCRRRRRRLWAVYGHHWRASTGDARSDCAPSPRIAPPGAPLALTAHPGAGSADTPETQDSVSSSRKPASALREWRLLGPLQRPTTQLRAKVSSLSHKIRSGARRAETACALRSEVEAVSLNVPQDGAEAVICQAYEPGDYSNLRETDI
UniProt P43140: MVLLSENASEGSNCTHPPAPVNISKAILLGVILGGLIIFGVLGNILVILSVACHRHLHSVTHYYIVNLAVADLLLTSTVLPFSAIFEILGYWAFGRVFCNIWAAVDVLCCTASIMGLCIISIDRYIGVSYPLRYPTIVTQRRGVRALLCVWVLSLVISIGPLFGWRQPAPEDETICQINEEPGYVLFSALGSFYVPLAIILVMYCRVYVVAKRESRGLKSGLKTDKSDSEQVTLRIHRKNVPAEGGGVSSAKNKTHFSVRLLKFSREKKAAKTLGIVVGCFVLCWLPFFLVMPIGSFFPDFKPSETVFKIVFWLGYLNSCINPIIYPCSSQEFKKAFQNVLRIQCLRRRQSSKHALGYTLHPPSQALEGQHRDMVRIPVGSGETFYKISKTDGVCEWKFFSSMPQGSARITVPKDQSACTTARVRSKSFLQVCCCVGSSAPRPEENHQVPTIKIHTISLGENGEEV
UniProt P22086: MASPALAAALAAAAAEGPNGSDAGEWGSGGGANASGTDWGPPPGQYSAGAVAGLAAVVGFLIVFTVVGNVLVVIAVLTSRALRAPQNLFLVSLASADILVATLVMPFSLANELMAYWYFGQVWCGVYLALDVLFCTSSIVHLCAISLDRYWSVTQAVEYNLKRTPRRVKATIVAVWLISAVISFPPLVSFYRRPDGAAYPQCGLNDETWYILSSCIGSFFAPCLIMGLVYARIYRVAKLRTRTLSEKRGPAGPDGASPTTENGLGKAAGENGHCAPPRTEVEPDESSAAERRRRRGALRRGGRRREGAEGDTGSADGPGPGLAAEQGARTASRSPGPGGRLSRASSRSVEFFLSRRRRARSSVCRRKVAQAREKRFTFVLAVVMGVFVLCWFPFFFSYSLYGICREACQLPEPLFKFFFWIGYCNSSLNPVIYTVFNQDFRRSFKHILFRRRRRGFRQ
UniProt P19328: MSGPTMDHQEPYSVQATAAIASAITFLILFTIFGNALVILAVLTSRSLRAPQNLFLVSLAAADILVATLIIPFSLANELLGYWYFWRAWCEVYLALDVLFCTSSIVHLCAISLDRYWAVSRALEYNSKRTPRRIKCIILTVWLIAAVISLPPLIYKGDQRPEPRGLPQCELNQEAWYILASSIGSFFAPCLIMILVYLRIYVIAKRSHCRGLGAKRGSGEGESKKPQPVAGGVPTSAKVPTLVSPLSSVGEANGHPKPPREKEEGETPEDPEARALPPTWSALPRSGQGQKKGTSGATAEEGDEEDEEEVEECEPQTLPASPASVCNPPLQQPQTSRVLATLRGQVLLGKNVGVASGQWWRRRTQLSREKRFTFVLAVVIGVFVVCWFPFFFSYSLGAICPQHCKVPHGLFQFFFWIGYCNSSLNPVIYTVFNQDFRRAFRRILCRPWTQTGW
UniProt P22909: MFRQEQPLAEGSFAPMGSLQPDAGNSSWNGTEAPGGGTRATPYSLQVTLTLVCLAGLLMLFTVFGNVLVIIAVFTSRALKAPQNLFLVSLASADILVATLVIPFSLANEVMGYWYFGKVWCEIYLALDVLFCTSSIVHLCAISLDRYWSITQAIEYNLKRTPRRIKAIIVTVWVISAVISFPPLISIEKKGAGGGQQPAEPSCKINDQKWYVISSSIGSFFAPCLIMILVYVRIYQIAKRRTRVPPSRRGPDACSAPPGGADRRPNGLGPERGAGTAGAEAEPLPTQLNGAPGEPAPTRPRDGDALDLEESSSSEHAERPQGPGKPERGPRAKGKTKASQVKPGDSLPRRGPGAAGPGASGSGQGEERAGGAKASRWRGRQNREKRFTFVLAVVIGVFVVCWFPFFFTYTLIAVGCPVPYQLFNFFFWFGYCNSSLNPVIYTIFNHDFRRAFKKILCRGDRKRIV

Assay [1] addresses Adrenergic receptor alpha-1 (Rattus norvegicus, UniProt P15823+P23944+P43140). The experiment in a line: Binding affinity against alpha-1 adrenergic receptor is the ability to inhibit the specific [3H]prazosin binding (0.2 nM) to rat isolated brain membranes by 50% was reported.
Assay [2] has as its target Adrenergic receptor alpha-2 (Rattus norvegicus, UniProt P22086+P19328+P22909). Put plainly: Binding affinity against Alpha-2 adrenergic receptor is the ability to inhibit the specific [3H]clonidine binding (0.4 nM) to rat isolated brain membranes by 50% was reported; 2.3*10e-8. It is filed as tissue-based, Membrane.

For orientation: IC50 means the concentration needed to halve the response being measured. Low values mean higher potency, high ones lower potency. The compound `Clc1cccc(Cl)c1NC1=NCCN1` [CLONIDINE] displayed a 50% inhibitory concentration (IC50) in assay [1] of 1.2 µM.
`Cc1cc(C(C)(C)C)cc(C)c1CC1=NCCN1` [XYLOMETAZOLINE] gave an IC50 in assay [2] of 23 nM.
